Data published in US11607419B2, “Inhibitors of RAC1 and uses thereof for inducing bronchodilatation” (INSTITUT NATIONAL DE LA SANTE ET DE LA RECHERCHE MEDICALE …, priority 2017, dated 2023).

What was measured:
[1] = system: Rac1-dependent ruffle formation in NIH3T3 cells; assay: Rac activator-induced membrane ruffling (actin staining) in fibroblasts; format: cell-based; conditions: added 1 h before Rac activation
Method: Cell culture, transfection and actin staining. NIH3T3 cells grew up in DMEM (Gibco; Invitrogen) containing 10% foetal bovine serum, 100 units/mL penicillin and 100 μg/mL streptomycin at 37° C. and 5% CO2. The culture medium was changed every 72 hours.
After treatments, fibroblasts were fixed with 4% paraformaldehyde in PBS, permeabilized in PBS 0.5% Triton X-100, and incubated with 130 μg/mL of FITC-conjugated phalloidin (Sigma) to visualize F-actin. After staining, images were captured by a fluorescence microscope (Nikon). The actin cytoskeleton organization was analyzed to observe Rac1-dependent ruffle formation.

3T3 cells migration = assay: Unidirectional cell migration; format: cell-based
Method: Unidirectional cell migration. Cells (1000/well) were seeded in a 96 well plate with […] fibronectin stripes (CytooPlates Motility, CYTOO) in medium with 1% SVF and allowed to spread for 4 hours before capturing time-lapse images for 24 hours (image/10 minutes) on a Widefield Leica DMI 6000B drove with Metamorph software. Cells speed was measured with ImageJ software.

## CCN(CC)CCCC(C)Nc1nc(C)cc(Nc2ccc3nc(C)cc(N)c3c2)n1 (centres unmarked) [NSC23766, reference compound]
[1]
  efficiency of Rac activator to induce ruffle: strongly decreased
3T3 cells migration
  migration rate of the cells: slow down
